Tested on: 51Cr-labeled recipient LB
Assay: Inhibition of LB-directed cytotoxicity by granule exocytosis pathway blockers
Conditions: CMA 1, 10, 100 nM/L for 2 h or SrCl2 5, 25, 50 mM/L for 18 h; one mean given for either reagent; FIG. 5 E:T 5:1
Description: Cytolytic activity of a CTL refers to the secretion of the contents of secretory granules into the immediate vicinity of the target cell to which it attaches. The granules contain perforins, various lysosomal enzymes, and calcium binding proteins that destroy the target cell.

Substance: strontium chloride [SrCl2]
- mean inhibition of LB-directed cytotoxicity: 87%

— patent US20020119121A1, “Compositions and methods for inducing specific cytolytic T cell responses” (priority 2000, published 2002)
